In ChEMBL document CHEMBL2150859, “Design, synthesis, and evaluation of 3,5-disubstituted 7-azaindoles as Trk inhibitors with anticancer and antiangiogenic activities” (J Med Chem, 2012) one finds Selectivity ratio data, which are given here for one compound.

A short description of the assay: Selectivity ratio of Kd for PI3Kalpha to Kd for TRKA.

Regarding `Nc1cccc(-c2cnc3[nH]cc(-c4ccncc4)c3c2)c1`, the Selectivity ratio was 181.
